The target in this data set is hERG ion channels (Homo sapiens (Human), UniProt Q12809). As to the kind of experiment: Inhibition activity test on hERG ion channels in HEK293 cells (cardiac safety, patch clamp). The conditions noted are these: 100 nM, positive control. How it is done:
This experiment is used as a cardiac safety test of compound.
The reagents are purchased from Sigma (St. Louis, MO) except NaOH and KOH for acid-base titration. Final concentrations of tested solutions are prepared on the testing day and dissolved in extracellular fluid. […] All the test solutions and the control solutions contain 0.3% DMSO. Intracellular fluid (mM) contains: K Aspartate, 130; MgCl2, 5; EGTA 5; HEPES, 10; Tris-ATP 4; pH 7.2 (KOH titration).
Cells: all experiments is performed at room temperature. Each cell itself is taken as the corresponding control.
Compounds are all perfused using a perfusion system that utilizes the gravity. At least two cells are tested per concentration. After current stabilization (or 5 minutes), the change in current magnitude before and after the use of the compound is compared to calculate the blocking effect of the compound. […]
Electrophysiology: Transfer the Cells to the perfusion tank and perfuse with extracellular fluid. […] The intracellular fluid is stored in small quantities in portions in a −80° C. refrigerator, and melt on the day of the experiment. […]
This process is repeated every 20 seconds. […] The maximum tail current triggered by the second square wave is detected, and when the current is stabilized, the test compound is perfused. The strength of the block is calculated when the response is stabilized.
On the technique in general: Block of hERG is tested as a sign of cardiac risk.

Sequences of proteins named here, by UniProt entry; tags and fusion partners are left off. A change or cut given only in a name is not applied to a line headed by its entry.
UniProt Q12809: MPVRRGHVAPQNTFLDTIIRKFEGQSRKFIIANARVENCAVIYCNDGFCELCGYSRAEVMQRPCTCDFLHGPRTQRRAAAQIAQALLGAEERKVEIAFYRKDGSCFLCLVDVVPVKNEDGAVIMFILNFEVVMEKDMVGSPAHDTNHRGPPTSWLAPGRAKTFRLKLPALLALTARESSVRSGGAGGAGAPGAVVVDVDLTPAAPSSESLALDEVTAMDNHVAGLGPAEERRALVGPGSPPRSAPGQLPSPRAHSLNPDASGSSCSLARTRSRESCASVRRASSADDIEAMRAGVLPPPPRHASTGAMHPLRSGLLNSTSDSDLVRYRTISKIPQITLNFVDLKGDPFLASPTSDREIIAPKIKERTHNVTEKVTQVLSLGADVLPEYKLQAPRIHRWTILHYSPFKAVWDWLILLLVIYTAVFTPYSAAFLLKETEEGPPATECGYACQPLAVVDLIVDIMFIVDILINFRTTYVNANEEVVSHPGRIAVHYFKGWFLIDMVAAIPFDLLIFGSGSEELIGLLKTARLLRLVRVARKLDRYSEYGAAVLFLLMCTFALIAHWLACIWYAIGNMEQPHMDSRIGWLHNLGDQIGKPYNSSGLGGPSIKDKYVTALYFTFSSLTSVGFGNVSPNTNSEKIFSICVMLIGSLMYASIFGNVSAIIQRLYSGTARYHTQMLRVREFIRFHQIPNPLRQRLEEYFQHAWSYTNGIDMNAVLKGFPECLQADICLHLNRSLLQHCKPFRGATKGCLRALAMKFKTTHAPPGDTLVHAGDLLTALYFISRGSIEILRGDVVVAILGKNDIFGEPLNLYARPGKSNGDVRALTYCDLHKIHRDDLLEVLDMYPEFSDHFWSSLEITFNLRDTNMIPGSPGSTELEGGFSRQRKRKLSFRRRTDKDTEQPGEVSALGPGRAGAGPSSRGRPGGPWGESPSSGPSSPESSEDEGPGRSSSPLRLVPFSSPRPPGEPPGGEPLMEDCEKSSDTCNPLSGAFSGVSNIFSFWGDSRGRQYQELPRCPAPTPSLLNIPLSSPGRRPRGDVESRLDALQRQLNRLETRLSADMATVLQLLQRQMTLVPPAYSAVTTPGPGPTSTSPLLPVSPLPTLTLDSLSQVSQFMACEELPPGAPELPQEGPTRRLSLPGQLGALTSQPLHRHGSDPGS

For the compound `COc1cc(N)c(Cl)cc1C(=O)NC1CCN(CCCOc2ccc(F)cc2)CC1OC` (stereo not shown) [Cisapride, reference compound], the hERG blocking rate entry was “about 90%”.

(Values after patent US20230303497A1, “BENZYLAMINE OR BENZYL ALCOHOL DERIVATIVE AND USES THEREOF” (CHENGDU HYPERWAY PHARMACEUTICALS CO., LTD, priority 2020, published 2023).)
